The numbers were not newly measured in patent publication US5104858A, “Sensitizing multidrug resistant cells to antitumor agents” (priority 1988, dated 1992), which cites them from elsewhere.

Entries after “also recorded” stand apart in the source; their conditions may differ.

The subject of the data set is dopamine receptors. The following applies: cited from earlier work.

Turning to `OCCN1CCN(CC/C=C2\c3ccccc3Sc3ccc(C(F)(F)F)cc32)CC1` [trans-Flupenthixol], the dopamine antagonism result is listed as “far less potent dopamine antagonist; also recorded: virtually no activity as a dopamine antagonist”.
